# Antibody variant affinities, Ab-14 light chain, assay B

Binding partner: SARS-CoV-2 spike HR2 peptide, sequence PDVDLGDISGINAS.

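The starting antibody came from a phage panning campaign against this peptide. This is the validation round: designs drawn from the data on random variants, tested in the same kind of assay. Several design methods are mixed in this list. The assay is AlphaSeq: two haploid yeast populations carry antibody and antigen on their surface. Mating (16 h, 30 °C) was followed by selection of diploids and sequencing of their barcodes. Each replicate has its own calibration line, from reference interactions of the BCL2 family. There are six technical replicates.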

Parent: Ab-14, a human scFv built as VH, a (GGGGS)3 linker, VL. Only the CDRs of the light chain vary.
VH: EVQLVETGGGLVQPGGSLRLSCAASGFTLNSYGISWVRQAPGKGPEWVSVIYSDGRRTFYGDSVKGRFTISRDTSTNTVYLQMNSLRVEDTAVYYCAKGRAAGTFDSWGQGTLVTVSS
VL: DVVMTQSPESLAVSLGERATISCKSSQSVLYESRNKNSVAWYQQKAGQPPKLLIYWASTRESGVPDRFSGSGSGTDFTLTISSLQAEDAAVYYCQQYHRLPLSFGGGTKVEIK

Each variant is given by its three light chain CDRs, as the data file delimits them; those of the parent are KSSQSVLYESRNKNSVA, WASTRES, QQYHRLPLS.
The read-out is the apparent dissociation constant on a log10 scale (nM): the lower, the stronger.
The mean shown is taken over the replicates in which the pair was detected.
Where no diploid with the target was found in any replicate, the entry reads "not detected": below detection, most likely a poor binder, though not proof of it.

| CDR-L1 | CDR-L2 | CDR-L3 | mean log10 Kd (nM) | detected |
|---|---|---|---|---|
| KLSISYLGEKRNKNSVA | EASTRES | QQYHRLPLS | 0.13 | 6 of 6 |
| NISQMFHMETKNVNNVA | QTSTRES | QDYHRLPLS | 0.32 | 6 of 6 |
| TLSQSMDMTSRNVNSVA | DLTTRGN | QQYHRLPLS | 0.04 | 6 of 6 |
| IISQSVMFEQTLINSVA | NAQTRES | QQYHRLPLS | 0.98 | 6 of 6 |
| KSSDSVLYESTNDNSVA | WASTRES | QQYHRLPNS | 2.25 | 1 of 6 |
| KSSQSVLYESRNKNSVA | GASTRES | QQYVRLPLS | -0.15 | 6 of 6 |
| KAMQSVLYESYNKNSVA | NASTRES | QQYHLLPLS | 0.63 | 6 of 6 |
| KQSQSVLYESMNKNSVA | DASTRES | QQYHRLPLS | 0.43 | 6 of 6 |
| KSSQSVLYESNNKNSVA | NASTRMS | QQYHRLPLS | 0.92 | 6 of 6 |
| KISQWKLGESRNKNSVA | DASQRES | QQYHRLPLS | -0.10 | 6 of 6 |
| KLVNFMNRGTHHTSNIA | DAQNRCD | QQYARLPLA | 0.19 | 6 of 6 |
| MMSQVTGLGQRHRNNVA | QTSTREE | QQYDRLPLV | 0.43 | 6 of 6 |
| KCSQSVLYEDRNKNSVA | WANTRES | QQYHRLPLS | 1.60 | 6 of 6 |
| KQQQSVLYEERNKNSVA | DASTRES | QQYHRLPLS | -0.01 | 6 of 6 |
| QLLMATMQGKYNRNSVA | HAETRED | QSYHRLPLS | 1.07 | 6 of 6 |
| MVNGIMDHLSKQTNNVA | ETTTRNS | QQYDRLPLS | 1.44 | 6 of 6 |
| KLQFSVDYESRNKNAVA | EASTREK | QQYHRLPLS | -0.30 | 6 of 6 |
| KQSQSVLYEDRNKNSVA | NASQRES | QQYHRLPLS | 2.41 | 5 of 6 |
| MIHESSGLMSHKQSSIA | DNSTRED | QQYDRLPLS | 3.45 | 2 of 6 |
| KVQQSELGLSRNKNSVA | QASKRES | QQYHRLPLS | 0.26 | 6 of 6 |
| KESQSVWTEWRNKNSVA | DASTRES | QQYHRLPLS | -0.15 | 6 of 6 |
| KVDLSVLEESRNKNSLA | WASTRES | QQHHRLPLS | 1.02 | 6 of 6 |
| KLTMIQGTEKVRGNNVA | EMETREN | QQYNRLPLS | 0.03 | 6 of 6 |
| KLSQSELYESRNKNSVA | EASHRES | QQYHRLPLS | -0.47 | 6 of 6 |
| KSSQSNLTESRNKNSVA | YASTRES | QLYHRLPLS | 1.50 | 5 of 6 |
| KINGLMNIEQMNSKSVA | HSSTREN | QQYHRLPLS | 0.33 | 6 of 6 |
| KLSGIMRVESKKSNSIA | EMTTRGE | QQYDRLPLS | 0.68 | 6 of 6 |
| SMHPFDKAIGKGTNNIA | HVSVRAS | QQYARLPLV | 2.09 | 6 of 6 |
| MISQLYNMGQFAINSVA | QASLRNE | QQYDHLPLM | 0.96 | 6 of 6 |
| QLDWYNSTATAAKNSVA | GVAHRMN | QQYMRLPLM | 1.10 | 6 of 6 |
| KLTMISGLEKVSKNNVA | EMETRER | QQYNRLPLS | -0.27 | 6 of 6 |
| KLRQSTVIESFNKNNVA | EMTNRES | QSYDRLPLS | 3.00 | 2 of 6 |
| ASSQSVLYESRNKNSVA | WASTRES | QQYHRLPLS | not detected | 0 of 6 |
| KIGGTLNQLMHKKNNVA | DLVMREN | QQYFRLPLS | 0.78 | 6 of 6 |
| ACSQSDLYESRNKNSVA | WGSTRNS | QQYHRLPLS | 0.81 | 6 of 6 |
| KLPQATMQESVSKNSVA | ELSTRGA | QQYHRLPLS | 0.17 | 6 of 6 |
| KVSISYLLESRNKNSVA | EASTREL | QQYHRLPLS | 0.12 | 6 of 6 |
| HISEMIFAQMKMRNSVA | ENSTREA | QQYDRLPLS | not detected | 0 of 6 |
| KITQIFSPKGNSDHSVA | NANTLAH | QQYYMLPLM | 0.18 | 6 of 6 |
| KLSMVTGHLSMAKYNVA | EMVTREK | QQYNRLPLS | 0.61 | 6 of 6 |
| KLMQSWLYESRNKNSVA | HASLRED | QQYHRLPLS | 0.43 | 6 of 6 |
| SLRAMILDWDSKRQNIA | DVHMREQ | QQYNRLPIV | 0.29 | 6 of 6 |
| MISQLYNMGQFAINSVA | QASVRNE | QQYDRLPLQ | 1.33 | 6 of 6 |
| KSSQSYLGESRNKNSVA | EASTRES | QQYHRLPLS | 0.45 | 6 of 6 |
| KLSQSMLYESRNKWSVA | NASQRES | QQYHRLPLS | -0.06 | 6 of 6 |
| KSHASVAYEYDNKNSVA | WASTRES | QQYHRLPLS | 1.37 | 6 of 6 |
| KQSQSTLYESGMKNSVA | NASKRMS | QQYHRLPLS | 0.70 | 6 of 6 |
| KSSSSVLYESRNKNSVA | WASTRES | QQYNRLPLS | 1.70 | 6 of 6 |

Values of this round are not directly comparable with the first-round values of the same sequences.
Of ten entries with the parent sequence, four were seen in most replicates (averages 0.34 to 2.37), three in one and three in none, so single entries are noisy.
In the paper, a design with two or fewer of six values counts as a poor binder.
Empty control strains, which show no peptide, gave a signal in 4% of pairings with all light chain designs; the median was 2.64 and 95% of these signals were weaker than 1.59. No background was subtracted.

The measurements come from Li et al. 2023 (doi:10.1038/s41467-023-39022-2) through the FLAb antibody collection.